The text below walks through data of BindingDB's records for doi:10.1016/j.bmcl.2018.11.015 (Boehringer Ingelheim Pharmaceuticals, 2019).

The structures appear in SMILES notation.

The assay is described as follows: Antagonist activity at CCR1 in human THP1 cells assessed as inhibition of chemotaxis after 30 mins by Celltiter-glo reagent based luminescence assay.

For the molecule `CC(C)(O)CC[C@H](C[C@H](O)[C@H](Cc1cccc(F)c1)NC(=O)c1cnc2ccccc2n1)C(N)=O`, the IC50 (as a rule, the midpoint of a concentration-inhibition curve) was determined as 39 nM.
